The text below walks through data of paper PMC9494680 (ACS Omega, 2022).

The subject of assay [1] is TF1 cells. Nature of the assay: Annexin V and dead cell flow cytometric apoptosis analysis. The settings on record: TF1, treated at IC50 value. It counts as cell-based, human. Background: In flow cytometry, cells or beads pass a laser one at a time.
The subject of assay [2] is TF1 cells. Nature of the assay: Caspase 3/7 flow cytometric apoptosis analysis. It counts as cell-based, human. The following applies: TF1, IC50 value, 72 h.

In the case of `N#CC[C@H](C1CCCC1)n1cc(-c2ncnc3[nH]ccc23)cn1` [ruxolitinib], the “Total apoptotic cells, annexin V” value in assay [1] (24 h) is about 35%; in assay [1] (72 h) it was about 50%. Besides, in assay [2], the “Total number of apoptotic cells, caspase 3/7” value is given as about 50%.
